The target in the assay is T1, Tyrosine-protein phosphatase non-receptor type 1 [1-298] (Homo sapiens, UniProt P18031).
T1 construct: 1-298
T1 sequence (P18031 whole entry): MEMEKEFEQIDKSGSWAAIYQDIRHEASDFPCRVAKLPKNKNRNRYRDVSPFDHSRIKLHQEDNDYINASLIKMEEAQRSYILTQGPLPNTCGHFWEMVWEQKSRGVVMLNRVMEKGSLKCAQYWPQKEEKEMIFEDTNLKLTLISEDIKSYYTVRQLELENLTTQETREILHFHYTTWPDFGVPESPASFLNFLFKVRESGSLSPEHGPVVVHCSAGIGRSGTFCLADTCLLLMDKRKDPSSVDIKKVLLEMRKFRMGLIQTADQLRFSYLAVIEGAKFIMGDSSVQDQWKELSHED
The assay is described as follows: Enzymatic Assay. The note with it: pH 7.4; 22 °C. The procedure: The enzymatic assay was carried out at room temperature in 96-well plates. […] All the assays were carried out in duplicate or triplicate and the average results are presented. Ki is derived from IC50 based on competitive inhibition Ki = IC50 x Km/ (Km + [substrate]).

pKi: −log10 of the molar value.

Take `O=C(O)COc1c(C(=O)O)sc2ncccc12` [3-(carboxymethoxy)thieno[2,3-b]pyridine-2-carboxylic acid]: the negative-log Ki (pKi) is 3.64.

As a reminder, the pKi is the negative decadic logarithm of the Ki, by convention in mol/L. Higher therefore signals a low Ki.

The values are drawn from BindingDB's records for doi:10.1016/j.bmc.2005.11.005 (Wyeth Research, 2006).
